Data as given in patent US10266537B2, “3-acetylenyl-pyrazole-pyrimidine derivative, and preparation method therefor and uses thereof” (Si Chuan University, priority 2015, dated 2019).

Sequences of proteins named here, by UniProt entry; tags and fusion partners are left off. A change or cut given only in a name is not applied to a line headed by its entry. Residues count along the entry.
UniProt P53667: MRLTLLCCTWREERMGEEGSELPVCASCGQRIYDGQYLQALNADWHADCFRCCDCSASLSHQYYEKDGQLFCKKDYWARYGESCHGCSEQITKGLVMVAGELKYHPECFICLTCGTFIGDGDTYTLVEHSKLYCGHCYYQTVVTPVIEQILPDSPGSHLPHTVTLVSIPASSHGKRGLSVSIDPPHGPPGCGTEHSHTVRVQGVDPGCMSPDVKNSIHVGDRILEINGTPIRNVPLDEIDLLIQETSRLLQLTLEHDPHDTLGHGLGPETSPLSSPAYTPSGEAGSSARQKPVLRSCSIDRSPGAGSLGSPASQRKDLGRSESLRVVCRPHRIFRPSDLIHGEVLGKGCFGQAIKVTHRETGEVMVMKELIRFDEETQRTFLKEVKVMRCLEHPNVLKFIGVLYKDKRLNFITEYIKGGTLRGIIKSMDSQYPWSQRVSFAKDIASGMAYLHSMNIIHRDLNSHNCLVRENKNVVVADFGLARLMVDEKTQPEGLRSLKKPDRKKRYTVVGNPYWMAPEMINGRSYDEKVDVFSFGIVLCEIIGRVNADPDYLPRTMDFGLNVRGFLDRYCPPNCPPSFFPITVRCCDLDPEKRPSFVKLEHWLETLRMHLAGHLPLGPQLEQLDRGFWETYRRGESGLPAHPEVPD
UniProt P15056, whole entry V600E: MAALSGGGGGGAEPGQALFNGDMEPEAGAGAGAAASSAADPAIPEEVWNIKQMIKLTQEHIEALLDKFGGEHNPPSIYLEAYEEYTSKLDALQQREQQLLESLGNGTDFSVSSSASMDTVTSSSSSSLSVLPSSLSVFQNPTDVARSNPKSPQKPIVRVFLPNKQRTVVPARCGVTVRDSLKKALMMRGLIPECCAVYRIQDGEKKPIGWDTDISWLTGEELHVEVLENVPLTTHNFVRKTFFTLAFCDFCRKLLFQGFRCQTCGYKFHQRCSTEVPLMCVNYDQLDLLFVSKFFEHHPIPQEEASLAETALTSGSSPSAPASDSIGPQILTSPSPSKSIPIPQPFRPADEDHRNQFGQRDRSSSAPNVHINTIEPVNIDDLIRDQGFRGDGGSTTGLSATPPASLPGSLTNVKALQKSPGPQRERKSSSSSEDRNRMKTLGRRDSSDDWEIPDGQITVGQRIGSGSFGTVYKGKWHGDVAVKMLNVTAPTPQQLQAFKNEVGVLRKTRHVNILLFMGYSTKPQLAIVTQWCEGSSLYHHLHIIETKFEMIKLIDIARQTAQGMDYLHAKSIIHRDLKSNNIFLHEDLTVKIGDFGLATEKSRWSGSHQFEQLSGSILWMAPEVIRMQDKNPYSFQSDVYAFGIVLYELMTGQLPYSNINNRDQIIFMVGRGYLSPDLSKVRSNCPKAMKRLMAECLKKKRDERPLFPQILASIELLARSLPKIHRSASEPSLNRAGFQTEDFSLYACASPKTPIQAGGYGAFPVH
UniProt P15056, whole entry: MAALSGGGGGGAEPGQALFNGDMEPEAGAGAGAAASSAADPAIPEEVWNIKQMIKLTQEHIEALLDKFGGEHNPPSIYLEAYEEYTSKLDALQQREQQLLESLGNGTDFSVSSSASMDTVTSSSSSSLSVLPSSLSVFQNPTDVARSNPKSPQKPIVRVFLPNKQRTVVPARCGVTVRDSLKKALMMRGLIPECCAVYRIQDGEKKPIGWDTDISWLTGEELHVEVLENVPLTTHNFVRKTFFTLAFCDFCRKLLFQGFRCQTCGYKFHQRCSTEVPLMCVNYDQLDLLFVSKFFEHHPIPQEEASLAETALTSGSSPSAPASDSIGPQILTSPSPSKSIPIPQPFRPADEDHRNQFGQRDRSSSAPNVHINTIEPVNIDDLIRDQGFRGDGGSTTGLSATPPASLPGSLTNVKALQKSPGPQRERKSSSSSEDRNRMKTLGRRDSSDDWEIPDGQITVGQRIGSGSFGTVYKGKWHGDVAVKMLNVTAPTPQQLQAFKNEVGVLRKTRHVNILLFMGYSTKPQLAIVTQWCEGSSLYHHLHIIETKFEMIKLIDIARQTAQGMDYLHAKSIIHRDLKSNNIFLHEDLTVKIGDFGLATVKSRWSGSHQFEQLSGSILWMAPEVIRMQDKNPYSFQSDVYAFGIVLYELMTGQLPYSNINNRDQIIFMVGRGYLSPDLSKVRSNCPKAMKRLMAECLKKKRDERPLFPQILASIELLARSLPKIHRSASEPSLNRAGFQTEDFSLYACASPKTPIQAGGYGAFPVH
UniProt P15056, 417-766 V600E limits assumed: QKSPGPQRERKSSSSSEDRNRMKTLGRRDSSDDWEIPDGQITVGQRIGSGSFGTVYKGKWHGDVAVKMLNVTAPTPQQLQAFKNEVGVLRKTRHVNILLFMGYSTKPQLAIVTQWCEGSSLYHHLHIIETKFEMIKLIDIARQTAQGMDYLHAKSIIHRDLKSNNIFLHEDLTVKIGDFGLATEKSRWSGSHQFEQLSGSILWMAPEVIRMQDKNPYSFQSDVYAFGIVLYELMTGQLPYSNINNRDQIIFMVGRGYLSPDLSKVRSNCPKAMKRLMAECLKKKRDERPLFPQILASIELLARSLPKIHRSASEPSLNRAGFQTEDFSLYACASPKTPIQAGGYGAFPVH

Key:
U87 = test: Cell proliferation inhibition assay (MTT); assay type: cell-based; details: Homo sapiens, U-87 MG, 72 h, read-out: Proliferation inhibitory activity IC50
OCI-LY10 = test: cells; details: Homo sapiens, OCI-Ly10, 72 h, read-out: Proliferation inhibitory activity IC50
HepG2 = test: Cell proliferation inhibition assay (MTT); assay type: cell-based; details: Homo sapiens, HepG2, 72 h, read-out: Proliferation inhibitory activity IC50
MM.1S = test: Cell proliferation inhibition assay (MTT); assay type: cell-based; details: Homo sapiens, MM1.S, 72 h, read-out: Proliferation inhibitory activity IC50
H358 = test: cells; details: Homo sapiens, NCI-H358, 72 h, read-out: Proliferation inhibitory activity IC50
Hela = test: Cell proliferation inhibition assay (MTT); assay type: cell-based; details: Homo sapiens, 72 h, read-out: Proliferation inhibitory activity IC50
A2058 = test: cells; details: Homo sapiens, A2058, 72 h, read-out: Proliferation inhibitory activity IC50
PANC-1 = test: Cell proliferation inhibition assay (MTT); assay type: cell-based; details: Homo sapiens, PANC-1, 72 h, read-out: Proliferation inhibitory activity IC50
THP-1 = test: Cell proliferation inhibition assay (MTT); assay type: cell-based; details: Homo sapiens, THP-1, 72 h, read-out: Proliferation inhibitory activity IC50
SKBR-3 = test: Cell proliferation inhibition assay (MTT); assay type: cell-based; details: Homo sapiens, SK-BR-3, 72 h, read-out: Proliferation inhibitory activity IC50
LIMK1 = LIMK1 (Homo sapiens (Human), UniProt P53667); details: ATP at Km
B-Raf(V600E) = B-Raf(V600E) (Homo sapiens (Human), UniProt P15056, V600E); test: Kinase inhibition assay (KinaseProfiler, 33P-ATP); details: ATP at Km
B-Raf = B-Raf (Homo sapiens (Human), UniProt P15056); test: Kinase inhibition assay (KinaseProfiler, 33P-ATP); details: ATP at Km
B-Raf(V599E)(h) = B-Raf(V599E)(h) (Homo sapiens (Human), UniProt P15056, V600E); test: Kinase inhibition assay (KinaseProfiler, 33P-ATP); assay type: biochemical; details: read-out: The percentage of the remaining active protein
DU145 = test: Cell proliferation inhibition assay (MTT); assay type: cell-based; details: Homo sapiens, DU-145, 72 h, read-out: Proliferation inhibitory activity IC50
BT474 = test: Cell proliferation inhibition assay (MTT); assay type: cell-based; details: Homo sapiens, BT-474, 72 h, read-out: Proliferation inhibitory activity IC50
A549 = test: Cell proliferation inhibition assay (MTT); assay type: cell-based; details: Homo sapiens, A549, 72 h, read-out: Proliferation inhibitory activity IC50
HT29 = test: Cell proliferation inhibition assay (MTT); assay type: cell-based; details: Homo sapiens, HT-29, 72 h, read-out: Proliferation inhibitory activity IC50
MV4-11 = test: Cell proliferation inhibition assay (MTT); assay type: cell-based; details: Homo sapiens, MV4-11, 72 h, read-out: Proliferation inhibitory activity IC50
H1437 = test: Cell proliferation inhibition assay (MTT); assay type: cell-based; details: Homo sapiens, NCI-H1437, 72 h, read-out: Proliferation inhibitory activity IC50
A375 = test: Cell proliferation inhibition assay (MTT); assay type: cell-based; details: Homo sapiens, A-375, 72 h, read-out: Proliferation inhibitory activity IC50
HCT116 = test: Cell proliferation inhibition assay (MTT); assay type: cell-based; details: Homo sapiens, HCT-116, 72 h, read-out: Proliferation inhibitory activity IC50
[1] = system: breast cancer cell line MDA-MB-231; details: mouse, in vivo
plc/prf/5 = test: Cell proliferation inhibition assay (MTT); assay type: cell-based; details: Homo sapiens, PLC-PRF-5, 72 h, read-out: Proliferation inhibitory activity IC50
MDA-MB-415 = test: Cell proliferation inhibition assay (MTT); assay type: cell-based; details: Homo sapiens, MDA-MB-415, 72 h, read-out: Proliferation inhibitory activity IC50
ZR-75-1 = test: Cell proliferation inhibition assay (MTT); assay type: cell-based; details: Homo sapiens, ZR-75-1, 72 h, read-out: Proliferation inhibitory activity IC50
Miapaca-2 = test: Cell proliferation inhibition assay (MTT); assay type: cell-based; details: Homo sapiens, MIA PaCa-2, 72 h, read-out: Proliferation inhibitory activity IC50
MDA-MB-435 = test: Cell proliferation inhibition assay (MTT); assay type: cell-based; details: Homo sapiens, MDA-MB-435, 72 h, read-out: Proliferative inhibitory activity MDA-MB-435 (IC50 class)

## CCn1nc(C#Cc2cc(C(=O)Nc3ccc(CN4CCN(C)CC4)c(C(F)(F)F)c3)ccc2C)c2c(N)ncnc21 [Compound 3]
U87
  IC50: 0.742 µM
OCI-LY10
  IC50: 2.17 µM
HepG2
  IC50: 8.67 µM
MM.1S
  IC50: 0.872 µM
H358
  IC50: 1.67 µM
Hela
  IC50: 5.41 µM
A2058
  IC50: 1.91 µM
PANC-1
  IC50: 6.56 µM
THP-1
  IC50: 5.11 µM
SKBR-3
  IC50: 4.52 µM

## Cc1ccc(NC(=O)c2ccc(C)c(C(F)(F)F)c2)cc1C#Cc1nn([C@H]2CC[C@H](O)CC2)c2ncnc(N)c12 [Compound 93]
LIMK1
  IC50: 0.255 µM
B-Raf(V600E)
  IC50: 0.087 µM
B-Raf
  IC50: 0.11 µM
B-Raf(V599E)(h)
  remaining activity at 10 µM: 14%

## Cc1ccc(NC(=O)c2cccc(C(F)(F)F)c2)cc1C#Cc1nn([C@H]2CC[C@H](O)CC2)c2ncnc(N)c12 [Compound 100]
DU145
  IC50: 0.0292 µM
BT474
  IC50: > 10 µM
A549
  IC50: > 10 µM
HT29
  IC50: 0.03 µM
MV4-11
  IC50: 0.079 µM
H1437
  IC50: 1.1 µM
A375
  IC50: ~0.03 µM
HCT116
  IC50: 2.3 µM
[1]
  inhibitory effect compared to positive control: better than the positive control (paclitaxel and dasatinib)
  tumor growth inhibition: significantly inhibit tumor growth
Hela
  IC50: 4.51 µM
plc/prf/5
  IC50: ~10 µM
MDA-MB-415
  IC50: ~10 µM
ZR-75-1
  IC50: ~10 µM
Miapaca-2
  IC50: < 0.6 µM

## Cc1ccc(C(=O)Nc2ccc(CN3CCN(C)CC3)c(C(F)(F)F)c2)cc1C#Cc1nn(C2CCNCC2)c2ncnc(N)c12 [Compound 120]
MDA-MB-435
  IC50: 0.1 to 0.5 µM
